# Source: PubChem BioAssay AID836 (Columbia University Molecular Screening Center, 2007)
# Only a part is listed here, and it is no random draw. Activity calls are given as the source filed them.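 The calls were made as follows: active = inhibition above the batch mean plus 3 SD and confirmed as a hit by visual image inspection (cut at about 30% in these data, passing the limit was not always enough); inconclusive = above the inhibition threshold but rejected on visual inspection; inactive = the rest.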
# Test: modifiers of F-actin cytoskeleton organization, primary screen, imaging, HUVEC, phalloidin staining, high-content imaging (AID 836)
# Conditions: HUVEC TNFa F-actin phalloidin imaging, at 2 µM, hits give high values
row,SMILES,inhibition
1,c1ccc(CN2CCC(Nc3ccccc3)CC2)cc1,inactive: 12%
2,N/C(=N\O)c1c(N)no[n+]1[O-],inactive: -41.1%
3,CN1CCC(Nc2cccc(F)c2)CC1,inactive: -21.7%
4,O=C(NCC1(N2CCOCC2)CCCCC1)c1cc(=O)[nH]c2ccccc12,inactive: 11.2%
5,N#CC1(Nc2ccccc2)CCN(CCc2ccccc2)CC1,inactive: 20.8%
6,COc1ccc(NC2CCN(CCc3ccccc3)CC2)c(OC)c1,inactive: 19.5%
7,O=C(NCC1(N2CCOCC2)CCCCC1)c1cc2ccccc2o1,inactive: 3.7%
8,O=C(OC1CN2CCC1CC2)C1c2ccccc2Oc2ccccc21 (stereo not drawn),inactive: -21%
